## Binding of CDR-mutated scFvs to a peptide of the spike HR2 region

Target peptide (SARS-CoV-2 spike, HR2 region): PDVDLGDISGINAS

Parent: Ab-14, a human scFv built as VH, a (GGGGS)3 linker, VL. Only the CDRs of the light chain vary.
VH: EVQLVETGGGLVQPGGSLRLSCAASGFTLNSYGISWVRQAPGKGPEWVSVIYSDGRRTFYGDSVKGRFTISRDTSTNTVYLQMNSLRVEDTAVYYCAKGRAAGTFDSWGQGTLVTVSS
VL: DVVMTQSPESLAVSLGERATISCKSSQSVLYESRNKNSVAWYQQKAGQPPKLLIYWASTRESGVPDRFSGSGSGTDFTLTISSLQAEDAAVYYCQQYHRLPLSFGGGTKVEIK

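The parent was found by panning a naive human phage display library on the peptide. This is the validation round: designs drawn from the data on random variants, tested in the same kind of assay. Several design methods are mixed in this list. In AlphaSeq, yeast of one mating type display the scFv and yeast of the other type display the target. The frequency of each diploid, read from paired DNA barcodes, reflects how well the two displayed proteins bind. Scores were corrected for input abundance and mapped to Kd with protein pairs of known affinity run in the same pool. The assay was run in six technical replicates.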

The parent's light chain CDRs are KSSQSVLYESRNKNSVA, WASTRES, QQYHRLPLS; each variant's own CDRs replace them letter for letter.
This list holds designs with more than six substitutions.
Numbers give log10(Kd / nM), so 0 is 1 nM and 3 is 1 µM. Smaller is tighter.
Replicates are averaged; those with no signal do not enter the mean.
"nd" marks a missing value. The strain was present, yet no cells mated with the target were sequenced in any replicate, which points to weak or no binding.
The range of this assay differs from that of the first round, and the authors advise against merging the two.
The authors' rule: three or more of the six replicates give a measured affinity, fewer mean a poor binder.
Background: pairings of all light chain designs with three empty control strains gave a value in 4% of cases (median 2.64, 5th percentile 1.59). Values in that range, when seen in few replicates, are hard to tell from nonspecific mating.
Of ten entries with the parent sequence, four were seen in most replicates (averages 0.34 to 2.37), three in one and three in none, so single entries are noisy.

- HITMGMYVSGRHMSNIA / QAETRAK / QQYDRLPLI -> 0.66 (6 of 6 replicates)
- QVVDEQWAEGQNIQSIA / EGEVMKD / QQYNRLPLS -> 1.96 (6 of 6 replicates)
- KISMLQRYESQTKNNIA / EMSRREN / QQYHRLPLS -> 0.44 (6 of 6 replicates)
- KLSQATRMESRNKASVA / ENSTREE / QQYFRLPLS -> 0.03 (6 of 6 replicates)
- KHQGSELYEERNDNSVA / QASQRES / QDYHRLPLS -> 0.97 (6 of 6 replicates)
- KFQQESNNMNDNQNSVA / DESMVQY / QHYWRLPLT -> 0.70 (6 of 6 replicates)
- IVSQLMLWGMHIKNSIA / EAQTRLN / QQYDRLPLF -> nd (0 of 6 replicates)
- KLQQSGLMGSRNKNSVA / EASTRLV / QAYHRLPLS -> 0.42 (6 of 6 replicates)
- KISMSTTFESRNKNSVA / ENSTREN / QSYHRLPLS -> 2.96 (4 of 6 replicates)
- ALTNEFESVSHHKNNIA / HTDQRCM / QQYATLPLS -> 1.14 (6 of 6 replicates)
- SIGQLVGYGQRNKNSVA / QMSTREN / QQYDRLPLS -> -0.22 (6 of 6 replicates)
- KLSMITGHMSTAKNNVA / EMVTREE / QQYNRLPLS -> 1.22 (6 of 6 replicates)
- ALSQSMDMTSHNVNSVA / DLTTRGN / QQYHRLPLS -> -0.26 (6 of 6 replicates)
- KLTMITGTEKVIGNNVA / EMETREN / QQYNRLPLA -> -0.23 (6 of 6 replicates)
- KIGHGLTTESYNKNSVA / QTETRVS / QHYHRLPLS -> 1.82 (1 of 6 replicates)
- SIYDATRMEQRNKNPIA / DVSNRPS / QQYDRLPLS -> 0.60 (6 of 6 replicates)
- TIANSMLYLSNLKNSIA / QAETRED / QQYHRLPIS -> 0.60 (6 of 6 replicates)
- KMSQSWLGEDWNKNSVA / EASQRES / QQYHRLPLS -> 0.36 (6 of 6 replicates)
- IITQSVMQESRNKSNVA / NTSERES / QQYERLPLI -> 1.81 (5 of 6 replicates)
- KLQMMVEMESRNPNSVA / SASTRLS / QQYHRLPLS -> 0.75 (6 of 6 replicates)
- MVNGIMDHLSKQTNNVA / ETTTRES / QQYERLPLS -> 0.43 (6 of 6 replicates)
- KLSATYRFESQNKSNIA / EMTMRES / QCYHRLPLS -> 2.01 (6 of 6 replicates)
- KLSNSYEYQSRNMNSVA / NASTRLS / QAYHRLPLS -> 0.76 (6 of 6 replicates)
- HVNHEYLDYKNYENNIA / HVSQRLY / QQYSHLPLS -> 0.54 (6 of 6 replicates)
- TISQSWFIESRNKNNVA / EMTCREN / QDYDRLPLS -> 1.33 (2 of 6 replicates)
- TISQSAQQESHKKNSVA / DLSVRGS / QQYDRLPLS -> 1.36 (6 of 6 replicates)
- HISQMVMYGSCNKNNVA / QVSLRGE / QQYHRLPLS -> 1.39 (6 of 6 replicates)
- KESQSEPYESRNKNSVA / NAMQRMS / QQYHRLPLS -> -0.22 (6 of 6 replicates)
- KLSMSYRYESEMKNSIA / ELVTRMS / QQYHRLPLS -> 1.65 (6 of 6 replicates)
- KFSQSNPYEQRNKNSVA / EASQREQ / QQYHRLPLS -> 0.10 (6 of 6 replicates)
- HISQSVGLTSRNKNSVA / ENSTRED / QQYDRLPLS -> 2.45 (6 of 6 replicates)
- KVSQAQDYESRNKNSVA / QASQREQ / QQYHRLPLY -> 1.27 (6 of 6 replicates)
- RMNKFMSEITEARNSVA / GAEHLAQ / QSYHRLPLS -> 0.23 (6 of 6 replicates)
- KLSMSQLYESRNKNNVA / SASHREH / QQYHRLPLS -> 0.35 (6 of 6 replicates)
- QMEWHNSGLLEAKNSVA / GVEHRAN / QQYMRLPLE -> 0.40 (6 of 6 replicates)
- MISQILNMGSFAINSVA / QASLRNE / QQYDRLPLM -> 0.49 (6 of 6 replicates)
- NIYQAMHELMQKKDNVA / DVTERGN / QQYFRLPLS -> 0.26 (6 of 6 replicates)
- QLMQVGGYEMNAHNSIA / DLRTREN / QQYHRLPLS -> 0.83 (6 of 6 replicates)
- KLSQYVGGESRNKSSLA / DNSTRES / QQYYRLPLS -> 0.79 (6 of 6 replicates)
- HMSMLTLSGMYHRNSVA / QMTTREN / QQYDRLPLS -> 1.27 (6 of 6 replicates)
- SVTNETDGNGLKWNSVA / DAAELMT / QDYFRLPIT -> 1.20 (6 of 6 replicates)
- KLEQSWLYGSRNKNSVA / NASERER / QQYHRLPLS -> -0.40 (6 of 6 replicates)
- KLYLSTMLESHNKNSIA / DLSTRGN / QQYHRLPLS -> 1.11 (6 of 6 replicates)
- MLSDLVRMGVRNTNSVA / DNSTRGS / QQYDRLPLS -> 2.41 (3 of 6 replicates)
- KIGATLNTLMHQKNNVA / DLVEREN / QQYFRLPLS -> 0.46 (6 of 6 replicates)

Repeated from above, the 2 best binders with a signal in all replicates:

* KLEQSWLYGSRNKNSVA / NASERER / QQYHRLPLS -> -0.40 (6 of 6 replicates)
* ALSQSMDMTSHNVNSVA / DLTTRGN / QQYHRLPLS -> -0.26 (6 of 6 replicates)

The measurements come from Li et al. 2023 (doi:10.1038/s41467-023-39022-2) through the FLAb antibody collection.